{"source": "patent US9822157B2", "about": "(priority 2013, dated 2017)", "target": "T1, human ferroportin (Homo sapiens, UniProt Q9NP59)", "T1 sequence (Q9NP59 1-571)": "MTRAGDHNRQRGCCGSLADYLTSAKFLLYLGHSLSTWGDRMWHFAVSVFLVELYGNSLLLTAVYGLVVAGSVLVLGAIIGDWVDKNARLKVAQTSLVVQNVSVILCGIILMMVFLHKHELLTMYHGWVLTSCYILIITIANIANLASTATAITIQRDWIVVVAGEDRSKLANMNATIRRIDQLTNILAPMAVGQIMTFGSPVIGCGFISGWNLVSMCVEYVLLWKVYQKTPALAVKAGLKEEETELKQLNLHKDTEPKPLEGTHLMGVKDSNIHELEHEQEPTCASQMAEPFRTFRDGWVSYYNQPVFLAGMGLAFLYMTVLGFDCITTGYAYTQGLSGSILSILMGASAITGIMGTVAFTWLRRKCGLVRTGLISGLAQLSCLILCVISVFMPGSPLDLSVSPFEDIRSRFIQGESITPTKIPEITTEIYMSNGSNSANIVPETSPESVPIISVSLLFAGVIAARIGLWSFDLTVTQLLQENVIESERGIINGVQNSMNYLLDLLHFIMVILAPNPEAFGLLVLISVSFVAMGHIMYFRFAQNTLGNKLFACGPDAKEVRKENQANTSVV", "format": "cell-based", "conditions": "Hepcidin analog peptides; read-out: Potency EC50", "text": "The cDNA encoding the human ferroportin (SLC40A1) was cloned from a cDNA clone from Origene (NM_014585). The DNA encoding the ferroportin was amplified by PCR using primers also encoding terminal restriction sites for subcloning, but without the termination codon. The ferroportin receptor was subcloned into a mammalian GFP expression vector containing a neomycin (G418) resistance marker in such that the reading frame of the ferroportin was fused in frame with the GFP protein. The fidelity of the DNA encoding the protein was confirmed by DNA sequencing. HEK293 cells were used for transfection of the ferroportin-GFP receptor expression plasmid. The cells were grown according to standard protocol in growth medium and transfected with the plasmids using Lipofectamine (manufacturer's protocol, Invitrogen). […] The cells were propagated and frozen in aliquots.\nCompound was added to desired final concentration for at least 18 hours in the incubator. […] Compound was added to desired final concentration for at least 18 hours but no more than 24 hours in the incubator.\nA retro inverse peptide is a peptide with a reversed sequence in all D amino acids. […] The EC50 of these reference compounds for ferroportin degradation was determined according to the activity assay described above."}
{"substance": "Hy-DTHFPCIKFGPRSKGWVCK-NH2 [Compound 102]", "values": [{"measurement": "EC50", "value": "> 1", "unit": "µM"}]}
